Experimental data taken from ChEMBL document CHEMBL4385610, “Selective Inhibition of Histone Deacetylase 10: Hydrogen Bonding to the Gatekeeper Residue is Implicated” (J Med Chem, 2019).

What was measured:
[1] = molecular target: T1, Polyamine deacetylase HDAC10 (Homo sapiens, UniProt Q969S8); assay: Inhibition of tubastatin-Alexa647-tracer binding to recombinant GST-tagged HDAC10 (unknown origin) measured after 1 hr by TR-FRET assay
T1 sequence (Q969S8 whole entry): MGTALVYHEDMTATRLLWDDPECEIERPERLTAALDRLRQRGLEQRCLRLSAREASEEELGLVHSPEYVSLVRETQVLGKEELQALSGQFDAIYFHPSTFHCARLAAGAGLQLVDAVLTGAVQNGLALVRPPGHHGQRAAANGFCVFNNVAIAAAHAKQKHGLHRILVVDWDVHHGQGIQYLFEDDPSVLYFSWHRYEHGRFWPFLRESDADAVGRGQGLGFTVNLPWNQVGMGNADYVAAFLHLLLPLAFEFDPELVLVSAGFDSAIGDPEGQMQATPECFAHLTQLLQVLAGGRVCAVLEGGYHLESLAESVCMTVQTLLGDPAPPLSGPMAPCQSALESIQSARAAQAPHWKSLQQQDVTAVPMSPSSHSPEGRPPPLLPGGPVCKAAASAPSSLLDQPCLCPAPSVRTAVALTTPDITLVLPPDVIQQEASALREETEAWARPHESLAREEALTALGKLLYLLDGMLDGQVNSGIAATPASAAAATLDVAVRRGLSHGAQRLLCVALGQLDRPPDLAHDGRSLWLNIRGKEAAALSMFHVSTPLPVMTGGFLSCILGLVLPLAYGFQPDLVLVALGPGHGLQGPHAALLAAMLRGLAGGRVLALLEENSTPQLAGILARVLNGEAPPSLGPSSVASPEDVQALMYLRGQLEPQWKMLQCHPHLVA

[2] = molecular target: T1, Polyamine deacetylase HDAC10; assay: Inhibition of dye-labeled tracer binding to HDAC10 (unknown origin) transfected in human HeLa cells measured after 2 hrs by nano-luciferase reporter gene-based BRET assay; format: cell-based

CCCCN(Cc1ccc(C(=O)NO)cc1)C(=O)Nc1ccccc1 [NEXTURASTAT A] showed an IC50 [1] of 100 nM and an IC50 [2] of 501 nM.
